Earlier results as cited in patent US9005905B2, “Method of identifying transmembrane protein-interacting compounds” (Omeros Corporation, priority 2002, dated 2015).

Amino acid sequences for entries named in this document (tags omitted).
UniProt P35372, whole entry: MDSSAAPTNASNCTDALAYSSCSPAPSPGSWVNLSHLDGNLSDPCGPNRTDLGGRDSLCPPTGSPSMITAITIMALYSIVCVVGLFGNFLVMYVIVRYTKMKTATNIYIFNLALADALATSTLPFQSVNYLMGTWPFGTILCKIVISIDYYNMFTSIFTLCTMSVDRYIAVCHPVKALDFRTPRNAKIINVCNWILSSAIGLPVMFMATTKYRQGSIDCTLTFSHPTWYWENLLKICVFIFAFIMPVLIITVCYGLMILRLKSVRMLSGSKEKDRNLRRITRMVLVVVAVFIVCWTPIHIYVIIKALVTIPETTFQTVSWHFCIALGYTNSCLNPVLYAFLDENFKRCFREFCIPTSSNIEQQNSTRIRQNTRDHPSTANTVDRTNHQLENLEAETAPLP
UniProt P41143, whole entry: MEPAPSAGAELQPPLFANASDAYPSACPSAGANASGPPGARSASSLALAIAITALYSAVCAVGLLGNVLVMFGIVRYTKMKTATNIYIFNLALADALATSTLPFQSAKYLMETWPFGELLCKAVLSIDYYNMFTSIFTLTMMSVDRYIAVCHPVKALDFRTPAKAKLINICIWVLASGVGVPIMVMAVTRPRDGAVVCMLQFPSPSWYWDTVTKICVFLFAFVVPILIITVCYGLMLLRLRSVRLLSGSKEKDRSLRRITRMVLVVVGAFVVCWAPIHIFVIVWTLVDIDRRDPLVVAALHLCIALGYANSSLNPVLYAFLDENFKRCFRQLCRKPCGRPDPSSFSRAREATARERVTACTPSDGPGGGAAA

Target: mu and delta opioid receptors (Homo sapiens, UniProt P35372+P41143)
Settings: cited from earlier work

## DPDPE
  potency at co-expressed versus individual receptors: reduced potency

## endomorphin-1
  affinity at co-expressed versus individual receptors: enhanced affinity
